From PubChem BioAssay AID2521 (Sanford-Burnham Center for Chemical Genomics, 2010)
This is a selection; strong and weak results do not stand in their true shares. Calls of active or inactive are those of the source.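 How the source made its calls: active means inhibition above about 40% at 20 µM (limit read from the data); inactive means the rest.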

By UniProt entry, the sequences of proteins in these tests, tags left out.
UniProt P35414, whole entry: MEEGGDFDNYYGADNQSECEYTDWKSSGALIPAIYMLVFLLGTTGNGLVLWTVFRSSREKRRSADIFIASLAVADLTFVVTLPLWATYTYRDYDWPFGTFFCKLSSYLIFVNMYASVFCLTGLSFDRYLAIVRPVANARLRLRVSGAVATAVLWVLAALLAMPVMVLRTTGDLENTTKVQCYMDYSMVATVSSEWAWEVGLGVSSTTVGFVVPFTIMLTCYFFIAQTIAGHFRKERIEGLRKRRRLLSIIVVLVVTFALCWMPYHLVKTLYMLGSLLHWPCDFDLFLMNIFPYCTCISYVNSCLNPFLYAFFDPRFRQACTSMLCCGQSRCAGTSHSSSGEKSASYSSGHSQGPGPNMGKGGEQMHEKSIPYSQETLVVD

Each molecule was assayed against Apelin receptor (Homo sapiens) (UniProt P35414) (assay: antagonists of human apelin receptor APJ, primary screen, CHO-K1 cells, beta-arrestin complementation, luminescence (AID 2521;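 further: cells challenged with 10 nM apelin-13 agonist together with compound; plate controls were apelin-13 plus DMSO wells for no effect and DMSO wells lacking apelin-13 for full effect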)). Details: at 20 µM, stronger effect = higher value.

Structure (SMILES)	inhibition
CCCOc1ccc(C)cc1CN(CCCl)CCCl	inactive: -1.04%
CN1CCC(Nc2ccc(Cl)cc2)CC1	inactive: 12.1%
CCC(CO)(C(=O)OC1CN2CCC1CC2)c1ccccc1 (configuration not stated)	inactive: -0.274%
COc1cc(OC)cc(C(=O)NCC2(N3CCOCC3)CCCCC2)c1	inactive: 14.3%
COc1cccc(C(=O)N(c2cc(C)cc(C)c2)C2CCN(C(=O)OC(C)(C)C)CC2)c1	inactive: -16.2%
CCCOc1ccc(C(=O)NCC2(N(C)C)CCCCC2)cc1	inactive: -7.25%
CC(C)(C)OC(=O)N1CCC(Nc2ccccc2)CC1	inactive: 6.36%
O=C(O)C1(Nc2ccccc2)CCN(Cc2ccccc2)CC1	inactive: 0.587%
CCOc1ncccc1C(=O)NCC1(N2CCOCC2)CCCCC1	inactive: 4.24%
CN1CCC(Nc2ccc(F)c(Cl)c2)CC1	inactive: -8.55%
O=C(NCC1(N2CCCCC2)CCCCC1)c1ccco1	inactive: 9.06%
CN(C)c1ccc(C(=O)NCC2(N3CCCCC3)CCCCC2)cc1	inactive: 15.2%
CCN1CCC(Nc2cccc(F)c2)CC1	inactive: 0.659%
Cc1ccc(C(=O)NCC2(N3CCCCC3)CCCCC2)o1	inactive: -10%
Fc1ccccc1NC1CCN(Cc2ccccc2)CC1	inactive: -13.3%
COc1cc(OC)cc(C(=O)NCC2(N3CCCCC3)CCCCC2)c1	inactive: 9.78%
c1ccc(CN2CCC(Nc3ccccc3)CC2)cc1	inactive: 9.09%
CCCN1CCC(Nc2cc(OC)cc(OC)c2)CC1	inactive: -15.8%
CN(C)C1(CNC(=O)c2cccc(C#N)c2)CCCCC1	inactive: -12.8%
CC(C)(C)OC(=O)N1CCC(N(C(=O)c2ccccc2)c2ccc(Cl)cc2)CC1	inactive: 2.63%
N#Cc1ccc(C(=O)NCC2(N3CCCCC3)CCCCC2)cc1	inactive: 5.37%
CCc1cc(C(=O)NCC2(N3CCCCC3)CCCCC2)sc1C	inactive: 22.8%
O=C(OC1CN2CCC1CC2)C1c2ccccc2C=Cc2ccccc21 (configuration not stated)	inactive: -8.9%

Structure (SMILES)	inhibition
N/C(=N\O)c1c(N)no[n+]1[O-]	inactive: -0.00711%
CCOC(=O)N1CCC(Nc2ccc(C)cc2)CC1	inactive: 18.2%
COc1ccc(C(=O)NCC2(N3CCOCC3)CCCCC2)cc1OC	inactive: 6.5%
O=C(NCC1(N2CCOCC2)CCCCC1)c1cc(Br)ccc1Cl	inactive: 7.88%
COc1cc(C(=O)NCC2(N3CCOCC3)CCCCC2)cc(OC)c1C	inactive: -4.15%
CN1CCC(Nc2cccc(F)c2)CC1	inactive: 14.9%
O=C(NCC1(N2CCCCC2)CCCCC1)c1cncc(Br)c1	inactive: 9.66%
COc1cc(OC)c(C(=O)NCC2(N(C)C)CCCCC2)cc1OC	inactive: 18.4%
O=C(NCC1(N2CCOCC2)CCCCC1)c1cc(F)c(F)cc1Cl	inactive: 0.0582%
COc1ccc(CN(CCCl)CCCl)cc1Cl	inactive: 9.16%
CN(C)c1cccc(C(=O)NCC2(N3CCCCC3)CCCCC2)c1	inactive: -3.61%
CC(C)c1ccc(NC2CCN(C(=O)OC(C)(C)C)CC2)cc1	inactive: 8.64%
CN1CCN(CCOC(=O)C(O)(c2ccccc2)c2ccccc2)CC1	inactive: 2.61%
COc1ccc(NC2CCN(C(=O)OC(C)(C)C)CC2)cc1	inactive: 3.94%
CC(C)c1ccc(C(=O)NCC2(N3CCOCC3)CCCCC2)cc1	inactive: 9.74%
COc1cc(C(=O)NCC2(N3CCCCC3)CCCCC2)ccc1OC(F)F	inactive: -1.83%
O=C(NCC1(N2CCOCC2)CCCCC1)c1cc(=O)[nH]c2ccccc12	inactive: 5.56%
O=C(NCC1(N2CCCCC2)CCCCC1)c1cccc(C(F)(F)F)c1	inactive: 11%
CSc1ccc(C(=O)NCC2(N3CCOCC3)CCCCC2)cc1	inactive: -38.6%
O=C(NCC1(N2CCCCC2)CCCCC1)c1cccc([N+](=O)[O-])c1	inactive: -6.68%
CCN1CCC(Nc2ccc(Cl)cc2)CC1	inactive: 7.75%
N#CC1(Nc2ccccc2)CCN(CCc2ccccc2)CC1	inactive: 8.23%
O=C(NCC1(N2CCCCC2)CCCCC1)c1ccc(OC(F)F)cc1	inactive: -1.14%

Structure (SMILES)	inhibition
CCOC(=O)N1CCC(Nc2cccc(C)c2)CC1	inactive: 4.28%
Cc1ccc(OCC(C)C)c(CN(CCCl)CCCl)c1	inactive: 19.9%
CCCCOc1ccc(C(=O)NCC2(N3CCOCC3)CCCCC2)cc1	inactive: -41.5%
O=C(NCC1(N2CCCCC2)CCCCC1)c1ccc(F)cc1	inactive: -0.322%
COc1ccc(NC2CCN(CCc3ccccc3)CC2)c(OC)c1	inactive: -6.13%
CCOC(=O)N1CCC(Nc2ccc(F)cc2)CC1	inactive: 17.6%
CCOc1ccc(C)cc1CN(CCCl)CCCl	inactive: -5.25%
CCOC(=O)N1CCC(Nc2ccc(OC)cc2)CC1	inactive: 3.66%
N#CC1(Nc2ccccc2)CCN(Cc2ccccc2)CC1	inactive: 1.46%
O=C(NCC1(N2CCCCC2)CCCCC1)c1ccc(Cl)s1	inactive: 0.919%
O=C(OC1CN2CCC1CC2)C1c2ccccc2Oc2ccccc21 (configuration not stated)	inactive: 1.2%
COc1ccc(Cl)cc1C(=O)NCC1(N2CCOCC2)CCCCC1	inactive: 10.8%
O=C(NCC1(N2CCOCC2)CCCCC1)c1cc2ccccc2o1	inactive: 11.4%
O=C(NCC1(N2CCCCC2)CCCCC1)c1ccc(Cl)nc1	inactive: 9.1%
Cc1cc(C)cc(N(C(=O)c2ccccc2)C2CCN(C(=O)OC(C)(C)C)CC2)c1	inactive: -3.68%
CSc1ccccc1C(=O)NCC1(N2CCCCC2)CCCCC1	inactive: -4.36%
O=C(NCC1(N2CCCCC2)CCCCC1)c1ccc(=O)[nH]c1	inactive: 8.6%
O=C(NCC1(N2CCCCC2)CCCCC1)c1cccs1	inactive: 0.293%
COc1ccc(C(=O)NCC2(N3CCCCC3)CCCCC2)cc1	inactive: 9.74%
COc1ccc(C(=O)NCC2(N3CCCCC3)CCCCC2)c(OC)c1OC	inactive: 8.36%
CC(C)(C)OC(=O)N1CCC(N(C(=O)c2ccccc2)c2ccc(F)cc2)CC1	inactive: 21.4%
